According to paper PMC9257752, “Intestinal Absorption of FITC-Dextrans and Macromolecular Model Drugs in the Rat Intestinal Instillation Model” (Molecular Pharmaceutics, 2022):
Read-outs that look alike come from different tables or passages of the source.

Assays:
[1] = Rat intestinal instillation model (intraduodenal administration, plasma pharmacokinetics, deconvolution); conditions: for Proportion of total absorption (120 min) occurring in interval 0–20 min / Proportion of total absorption (120 min) occurring in interval 20–40 min / Proportion of total absorption (120 min) occurring in interval 40–60 min / Proportion of total absorption (120 min) occurring in interval 60–80 min / Proportion of total absorption (120 min) occurring in interval 80–100 min / Proportion of total absorption (120 min) occurring in interval 100–120 min: average ± SD
[2] = oral administration to rats; molecular weight of FITC-dextrans excreted in urine similar to administered; cited from earlier work
[3] = rat intestinal instillation, cited from earlier work; for Proportion of total absorption (120 min) occurring in interval 0–20 min / Proportion of total absorption (120 min) occurring in interval 20–40 min / Proportion of total absorption (120 min) occurring in interval 40–60 min / Proportion of total absorption (120 min) occurring in interval 60–80 min / Proportion of total absorption (120 min) occurring in interval 80–100 min / Proportion of total absorption (120 min) occurring in interval 100–120 min: average ± SD; for Tmax: median (min–max)
[4] = 0 mM C10, numerical deconvolution, n = 5–6 (PEP12210 n = 2)
[5] = 50 mM C10, numerical deconvolution, n = 5–6
[6] = 300 mM C10, numerical deconvolution, n = 5–6

## FITC-dextran 10 000 [FD10]
[1]; 0 mM C10, blank FaSSIF pH 6.5, median (min–max), n = 5–6 (PEP12210 n = 2)
  Tmax: 120 (45–120) min
[1]; [4]
  Proportion of total absorption (120 min) occurring in interval 0–20 min: 20% ± 4.1%
  Proportion of total absorption (120 min) occurring in interval 20–40 min: 17% ± 1.1%
  Proportion of total absorption (120 min) occurring in interval 40–60 min: 17% ± 0.83%
  Proportion of total absorption (120 min) occurring in interval 60–80 min: 16% ± 1.3%
  Proportion of total absorption (120 min) occurring in interval 80–100 min: 15% ± 2.2%
  Proportion of total absorption (120 min) occurring in interval 100–120 min: 15% ± 2.1%
[1]; 50 mM C10, blank FaSSIF pH 6.5, median (min–max), n = 5–6
  Tmax: 5 (5–10) min
[1]; [5]
  Proportion of total absorption (120 min) occurring in interval 0–20 min: 74% ± 7.1%
  Proportion of total absorption (120 min) occurring in interval 20–40 min: 12% ± 2.3%
  Proportion of total absorption (120 min) occurring in interval 40–60 min: 5.8% ± 1.8%
  Proportion of total absorption (120 min) occurring in interval 60–80 min: 4.0% ± 1.5%
  Proportion of total absorption (120 min) occurring in interval 80–100 min: 2.4% ± 1.7%
  Proportion of total absorption (120 min) occurring in interval 100–120 min: 2.2% ± 2.0%
[1]; 300 mM C10, blank FaSSIF pH 6.5, median (min–max), n = 5–6
  Tmax: 30 (10–30) min
[1]; [6]
  Proportion of total absorption (120 min) occurring in interval 0–20 min: 43% ± 8.7%
  Proportion of total absorption (120 min) occurring in interval 20–40 min: 27% ± 1.2%
  Proportion of total absorption (120 min) occurring in interval 40–60 min: 17% ± 3.4%
  Proportion of total absorption (120 min) occurring in interval 60–80 min: 8.6% ± 2.8%
  Proportion of total absorption (120 min) occurring in interval 80–100 min: 3.5% ± 2.2%
  Proportion of total absorption (120 min) occurring in interval 100–120 min: 1.2% ± 0.76%

## FITC-dextran 20 000
[2]
  Degradation in the gastrointestinal tract: not degraded to any significant extent

## fluorescein isothiocyanate (FITC)-dextran 4000 [FD4]
[2]
  Degradation in the gastrointestinal tract: not degraded to any significant extent
[3]; FD4, 0 mM C10
  Proportion of total absorption (120 min) occurring in interval 0–20 min: 17% ± 1.5%
  Proportion of total absorption (120 min) occurring in interval 20–40 min: 17% ± 1.6%
  Proportion of total absorption (120 min) occurring in interval 40–60 min: 16% ± 1.0%
  Proportion of total absorption (120 min) occurring in interval 60–80 min: 16% ± 0.79%
  Proportion of total absorption (120 min) occurring in interval 80–100 min: 17% ± 1.1%
  Proportion of total absorption (120 min) occurring in interval 100–120 min: 17% ± 2.3%
  Tmax: 90 (90–120) min
[3]; FD4, 50 mM C10
  Proportion of total absorption (120 min) occurring in interval 0–20 min: 72% ± 6.8%
  Proportion of total absorption (120 min) occurring in interval 20–40 min: 8.3% ± 3.8%
  Proportion of total absorption (120 min) occurring in interval 40–60 min: 5.1% ± 2.8%
  Proportion of total absorption (120 min) occurring in interval 60–80 min: 5.7% ± 1.5%
  Proportion of total absorption (120 min) occurring in interval 80–100 min: 5.2% ± 1.5%
  Proportion of total absorption (120 min) occurring in interval 100–120 min: 3.7% ± 0.19%
  Tmax: 10 (5–10) min
[3]; FD4, 300 mM C10
  Proportion of total absorption (120 min) occurring in interval 0–20 min: 44% ± 8.5%
  Proportion of total absorption (120 min) occurring in interval 20–40 min: 27% ± 1.7%
  Proportion of total absorption (120 min) occurring in interval 40–60 min: 15% ± 3.7%
  Proportion of total absorption (120 min) occurring in interval 60–80 min: 7.3% ± 3.3%
  Proportion of total absorption (120 min) occurring in interval 80–100 min: 3.9% ± 3.1%
  Proportion of total absorption (120 min) occurring in interval 100–120 min: 3.5% ± 1.1%
  Tmax: 30 (30–45) min
